This assay concerns the target Nav1.1 neuronal sodium channel (human) (UniProt P35498). Description: cross-linking; DSS (membrane permeable, noncleavable) on HEK293 cells expressing the channels, before lysis; different concentrations (50 or 100 μM for Nav1.1 and Nav1.2), 10 to 20 min; western blot; control DMSO without DSS. For orientation: A western blot detects proteins with antibodies after separation by electrophoresis.

The term stoichiometry N denotes the number of molecules, sites or subunits per partner or assembly.

Substance “Nav1.1 neuronal sodium channel (from UniProt P35498 1-2009) (natural protein)” showed a stoichiometry N of 2.

The record behind these values is paper PMC5727259.
